The Kd is the concentration at which binding is half-saturated.

Sequences of proteins named here, by UniProt entry; tags and fusion partners are left off.
UniProt P10415, whole entry: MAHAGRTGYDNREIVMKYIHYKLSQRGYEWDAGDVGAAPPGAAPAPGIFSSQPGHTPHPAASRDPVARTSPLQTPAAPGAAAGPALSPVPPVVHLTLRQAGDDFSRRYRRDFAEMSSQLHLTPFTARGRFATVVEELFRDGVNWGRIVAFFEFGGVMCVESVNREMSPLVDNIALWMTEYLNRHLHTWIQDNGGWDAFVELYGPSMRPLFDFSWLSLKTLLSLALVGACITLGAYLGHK

For experiment [1], the target named is T1, BCL-2 (Homo sapiens, UniProt P10415). Put plainly: Surface plasmon resonance affinity in solution (SPR AIS), BCL-2. It counts as binding. As to conditions: read-out: SPR AIS_BCL-2_KD. In general terms: SPR reads the build-up and loss of mass on a sensor chip optically.
Experiment [2] concerns the target T1, BCL-2. In words: Isothermal titration calorimetry (ITC), BCL-2. The conditions noted are these: 25 °C; ND = not determinable (too potent); read-out: ITC_BCL-2_KD. It counts as binding. The protocol: The protein was dialyzed prior to use in 2 L of 25 mM HEPES, 150 mM NaCl, 5% glycerol (v/v), 0.5% MTG (v/v) at pH 7.4 for 3 hours at room temperature. The protein was dialyzed using a 3.5 K MWCO Slide-A-Lyzer™ cassette. The protein solution was recovered, spin-filtered through a […] frit. The filtered protein was quantified by UV absorbance at 280 nm using an extinction coefficient of 36440 M^-1cm^-1. 500 ml of dialysis buffer was retained (remainder used to rinse out SCHOT bottle) and degassed for a minimum of 30 mins under vacuum with constant stirring. Typically, 50 μM protein was titrated from the syringe into the cell containing 5 μM compound. The solutions were carefully matched to ensure same solvent and buffer conditions were present in both syringe and cell (this is to minimize heat of dilution effects). The final solution was the dialysis buffer plus 1% DMSO and 0.05% P20. The experiment was performed over 13 injections with stirring at 1000 rpm, gain setting low and at 25° C. Pure water was used in the reference cell. The first injection was 0.5 μl with a duration of 1 second with a gap of 150 seconds until the further 12 injections of 3.05 μl with a duration 6.1 seconds and a 240 second interval between injections. Data was analyzed using the vendor supplied software, PEAQ-ITC Analysis Software. The data model used was the single site model. […]

With `O=C(c1cc(-c2cc3c(cc2C(=O)N2Cc4ccccc4C[C@H]2CN2CCOCC2)OCO3)n2c1CCCC2)N(c1ccccc1)c1ccc(O)cc1` [S55746], the dissociation constant (Kd) was 3.9 nM in experiment [1] and 2.47 nM in experiment [2].

The values above are taken from PMC5929447, “S55746 is a novel orally active BCL-2 selective and potent inhibitor that impairs hematological tumor growth” (Oncotarget, 2018).
